From patent US6462038B1, “Androgen receptor modulator compounds and methods” (Ligand Pharmaceuticals, Inc., priority 1999, dated 2002)
Read-outs that look alike come from different tables or passages of the source.

The chains behind the UniProt entries cited, without tags or fusion partners. Where a name states a change or a piece, a line headed by the entry shows the natural chain unless it says otherwise.
UniProt P10275: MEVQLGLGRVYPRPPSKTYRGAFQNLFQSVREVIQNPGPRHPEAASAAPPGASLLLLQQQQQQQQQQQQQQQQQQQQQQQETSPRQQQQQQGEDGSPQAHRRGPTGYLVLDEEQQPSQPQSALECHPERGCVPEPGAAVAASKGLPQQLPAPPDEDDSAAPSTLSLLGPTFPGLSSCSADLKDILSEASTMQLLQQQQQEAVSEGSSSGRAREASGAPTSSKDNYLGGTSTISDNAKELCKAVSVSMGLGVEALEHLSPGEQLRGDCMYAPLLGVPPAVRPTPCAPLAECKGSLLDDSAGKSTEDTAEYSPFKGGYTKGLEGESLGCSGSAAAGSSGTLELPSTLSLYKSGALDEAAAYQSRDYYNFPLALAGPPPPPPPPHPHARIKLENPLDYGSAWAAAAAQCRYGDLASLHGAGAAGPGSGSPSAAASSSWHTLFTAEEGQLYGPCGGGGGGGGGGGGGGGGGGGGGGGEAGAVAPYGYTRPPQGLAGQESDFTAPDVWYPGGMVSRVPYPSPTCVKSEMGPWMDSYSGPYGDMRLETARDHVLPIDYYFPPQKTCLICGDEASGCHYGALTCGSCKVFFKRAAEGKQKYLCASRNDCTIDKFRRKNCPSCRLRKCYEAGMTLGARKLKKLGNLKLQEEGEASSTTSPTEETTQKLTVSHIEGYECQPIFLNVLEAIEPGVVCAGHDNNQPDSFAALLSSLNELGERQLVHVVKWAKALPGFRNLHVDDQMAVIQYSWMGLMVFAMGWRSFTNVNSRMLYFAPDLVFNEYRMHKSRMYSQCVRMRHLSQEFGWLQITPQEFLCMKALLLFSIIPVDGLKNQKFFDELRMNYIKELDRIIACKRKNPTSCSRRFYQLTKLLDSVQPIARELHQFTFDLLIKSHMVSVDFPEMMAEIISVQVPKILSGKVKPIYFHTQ

Key:
[1] = molecular target: T1, hAR (Homo sapiens, UniProt P10275); assay: co-transfection assay, AR agonist, CV-1 cells; type: cell-based
[2] = molecular target: T1, hAR; assay: co-transfection assay, AR antagonist (in presence of DHT), CV-1 cells; type: cell-based
[3] = read-out: AR Agonist CV-1 Cells Potency, hAR in CV-1 cells
[4] = read-out: AR Antagonist CV-1 Cells Potency, hAR in CV-1 cells, DHT at EC50
[5] = read-out: AR Potency Agon, Table 2

Row | Compound | EC50 [1, 3] [nM] | IC50 [2, 4] [nM] | EC50 [1, 5] [nM] | IC50 ([2]; read-out: AR Potency Antag, Table 2) [nM]
1 | CC(C)CN1CCOc2cc3[nH]c(=O)cc(C(F)(F)F)c3cc21 | 2.6 | > 10000 | – | –
2 | CCCN1CCOc2cc3[nH]c(=O)cc(C(F)(F)F)c3cc21 | 2.4 | – | – | –
3 | CC1CN(C)c2cc3c(C(F)(F)F)cc(=O)[nH]c3cc2O1 (racemic) | 40 | > 10000 | – | –
4 | CCC1CN(C)c2cc3c(C(F)(F)F)cc(=O)[nH]c3cc2O1 (racemic) | 39 | > 10000 | – | –
5 | CCC1CN(CC(F)(F)F)c2cc3c(C(F)(F)F)cc(=O)[nH]c3cc2O1 (racemic) | 11 | – | – | –
6 | O=c1cc(C(F)(F)F)c2cc3c(cc2[nH]1)OCC(CO)N3CC(F)(F)F (racemic) [Compound 130, (±)-1,2,3,6-Tetrahydro-2-(hydroxymethyl)-1-(2,2,2-trifluoroethyl)-9-(trifluoromethyl)-7H-[1,4]oxazino[3,2-g]quinolin-7-one] | 8.9 | > 10000 | – | –
7 | CN1CCOc2cc3[nH]c(=O)cc(C(F)(F)F)c3cc21 [Compound 101, 1,2,3,6-Tetrahydro-1-methyl-9-(trifluoromethyl)-7H-[1,4]oxazino[3,2-g]quinolin-7-one] | 18 | – | 18 | –
8 | CCN1CCOc2cc3[nH]c(=O)cc(C(F)(F)F)c3cc21 [Compound 103, 1-Ethyl-1,2,3,6-tetrahydro-9-(trifluoromethyl)-7H-[1,4]oxazino[3,2-g]quinolin-7-one] | 6.4 | 8000 | 6.4 | 8000
9 | O=c1cc(C(F)(F)F)c2cc3c(cc2[nH]1)OCCN3CC(F)(F)F [Compound 105, 1,2,3,6-Tetrahydro-1-(2,2,2-trifluoroethyl)-9-(trifluoromethyl)-7H-[1,4]oxazino[3,2-g]quinolin-7-one] | 3.5 | – | 3.5 | –
10 | O=c1cc(C(F)(F)F)c2cc3c(cc2[nH]1)OCCN3 [Compound 120, 1,2,3,6-Tetrahydro-9-(trifluoromethyl)-7H-[1,4]oxazino[3,2-g]quinolin-7-one] | – | 112 | – | –
